Measurements: paper PMC10746543, “Design principles for cyclin K molecular glue degraders” (Nature Chemical Biology, 2023)

Columns and labels:
HEK293T cells = experiment: Drug sensitivity assay (CellTiter-Glo viability) with or without MLN4924 pretreatment; type: cell-based, human; details: Supplementary Table 2
[1] = tested on: cyclin K–eGFP degradation reporter; experiment: Cyclin K reporter stability analysis (dual-color cyclin K–eGFP reporter); type: cell-based, human; details: HEK293T, cyclin K reporter assay

For `CC(C)S(=O)(=O)c1ccccc1Nc1nc(N[C@@H]2CCCN(CCCCCCCCNC(=O)COc3cccc4c3C(=O)N(C3CCC(=O)NC3=O)C4=O)C2)ncc1Cl` (some centres unmarked), the Toxicity rescue (HEK293T cells; MLN4924-mediated cytotoxicity rescue, 10 µM used where n.d.) was 230%, the EC50 (HEK293T cells; read-out: Cellular assays EC50, HEK293T viability, 72 h, compound alone) was 155 nM and the “Normalized GFP/mCheery” value ([1]; 5 nM) was 0.9577 and 0.966. The “Round/mCherry ¦ Median (FITC-A :: null)” value ([1]; 5 nM) was 860 and 848, the “Round/mCherry ¦ Median (PE-CF594-A :: null)” value ([1]; 5 nM) was 2538 and 2481 and the “Normalized GFP/mCheery” value ([1]; 10.7 nM) was 0.959 and 0.9407. The “Round/mCherry ¦ Median (FITC-A :: null)” value ([1]; 10.7 nM) was 873 and 868, the “Round/mCherry ¦ Median (PE-CF594-A :: null)” value ([1]; 10.7 nM) was 2573 and 2608 and the “Normalized GFP/mCheery” value ([1]; 22.9 nM) was 0.8954 and 0.9462. For the same compound, the “Round/mCherry ¦ Median (FITC-A :: null)” value ([1]; 22.9 nM) was 831 and 840, the “Round/mCherry ¦ Median (PE-CF594-A :: null)” value ([1]; 22.9 nM) was 2623 and 2509 and the “Normalized GFP/mCheery” value ([1]; 48.9 nM) was 0.8876 and 0.9112. The “Round/mCherry ¦ Median (FITC-A :: null)” value ([1]; 48.9 nM) was 830 and 844, the “Round/mCherry ¦ Median (PE-CF594-A :: null)” value ([1]; 48.9 nM) was 2643 and 2618 and the “Normalized GFP/mCheery” value ([1]; 105 nM) was 0.9407 and 0.9131. For the same compound, the “Round/mCherry ¦ Median (FITC-A :: null)” value ([1]; 105 nM) was 868 and 849, the “Round/mCherry ¦ Median (PE-CF594-A :: null)” value ([1]; 105 nM) was 2608 and 2628 and the “Normalized GFP/mCheery” value ([1]; 224 nM) was 0.9038 and 0.9118. The “Round/mCherry ¦ Median (FITC-A :: null)” value ([1]; 224 nM) was 842 and 851, the “Round/mCherry ¦ Median (PE-CF594-A :: null)” value ([1]; 224 nM) was 2633 and 2638 and the “Normalized GFP/mCheery” value ([1]; 478 nM) was 0.9081 and 0.9104. The “Round/mCherry ¦ Median (FITC-A :: null)” value ([1]; 478 nM) was 846 and 853, the “Round/mCherry ¦ Median (PE-CF594-A :: null)” value ([1]; 478 nM) was 2633 and 2648 and the “Normalized GFP/mCheery” value ([1]; 2190 nM) was 0.9153 and 0.9113. The “Round/mCherry ¦ Median (FITC-A :: null)” value ([1]; 2190 nM) was 864 and 877, the “Round/mCherry ¦ Median (PE-CF594-A :: null)” value ([1]; 2190 nM) was 2668 and 2720 and the “Normalized GFP/mCheery” value ([1]; 4680 nM) was 0.9089 and 0.9053. For the same compound, the “Round/mCherry ¦ Median (FITC-A :: null)” value ([1]; 4680 nM) was 858 and 853, the “Round/mCherry ¦ Median (PE-CF594-A :: null)” value ([1]; 4680 nM) was 2668 and 2663 and the “Normalized GFP/mCheery” value ([1]; 10000 nM) was 0.9331 and 0.9218. The “Round/mCherry ¦ Median (FITC-A :: null)” value ([1]; 10000 nM) was 866 and 849 and the “Round/mCherry ¦ Median (PE-CF594-A :: null)” value ([1]; 10000 nM) was 2623 and 2603.

“And” between values parts separate entries of the source, which are not always exact repeats. Equal values may be shown once.
